# Measured values taken from patent publication US20200093782A1, “ARIANTS OF 2-[6-(4-CHLOROPHENOXY)HEXYL]-OXIRANE-2-CARBOXYLIC ACID FOR USE IN THE TREATMENT, PREVENTION AND/OR AMELIORATION OF BRAIN DISEASES” (Meta-IQ ApS, priority 2016, published 2020).
# Test system: Lewis rats
# Assay: Rat EAE model (MBP in CFA)
# Format: in vivo
# Conditions: treatment from day 1 or day 5 after induction, compared with placebo
# Source text: Six week old C57B16 mice were bred and kept at conventional animal facilities at the University of Copenhagen. Female Lewis rats, 2 months old were used for this study.
# All animals were weighed and scored clinically on a daily basis. During progression of EAE, leading to motor disabilities, animals had water in a Petri dish and soaked chow for easy intake to ensure sufficient intake of liquid and nutrients. Healthy animals were used as comparison and control of the EAE exposed animals.
# In the rat, EAE was induced by intradermal (i.d.) injection of 0.2 mL of an emulsion consisting of 100 μg Myelin Basic Protein Histochem Cell Biol 123 (MBP) from guinea pig (Sigma, USA, M2295) suspended in 0.1 mL of saline (0.9%) and 0.1 mL complete Freund's adjuvant (CFA; Difco, USA, 0638), with the addition of 0.2 μg of Mycobacterium Tuberculosis H37 Ra (Difco, USA, 3114). […]
# The animals were monitored daily, weighed and clinically scored according to the following scale (Imrich and Harzer 2001): 0, no clinical signs of EAE; 1, loss of tail tonus; 2, mild paresis in one or both hindlimbs; 3, moderate paresis in one or both hindlimbs; 4, severe paresis or paralysis in one or both hindlimbs; 5, paralysis in one or both hindlimbs and visible paresis in one or both forelimbs, incontinence; 6, moribund. […]
molecule,measurement,value
"IFNβ: interferon beta (IFNβ), known as the standard therapy for MS (protein, UniProt P01574 22-187, looked up) Interferon beta: MSYNLLGFLQRSSNFQCQKLLWQLNGRLEYCLKDRMNFDIPEEIKQLQQFQKEDAALTIYEMLQNIFAIFRQDSSSTGWNETIVENLLANVYHQINHLKTVLEEKLEKEDFTRGKLMSSLHLKRYYGRILHYLKAKEYSHCAWTIVRVEILRNFYFINRLTGYLRN",therapeutic effects when started at day 1 or day 5,did not produce therapeutic effects
